Reference: paper PMC8688955 (Frontiers in Pharmacology, 2021)

By UniProt entry, the sequences of proteins in these tests, tags left out. Residues count along the entry.
UniProt P19491, 22-883 Q607R: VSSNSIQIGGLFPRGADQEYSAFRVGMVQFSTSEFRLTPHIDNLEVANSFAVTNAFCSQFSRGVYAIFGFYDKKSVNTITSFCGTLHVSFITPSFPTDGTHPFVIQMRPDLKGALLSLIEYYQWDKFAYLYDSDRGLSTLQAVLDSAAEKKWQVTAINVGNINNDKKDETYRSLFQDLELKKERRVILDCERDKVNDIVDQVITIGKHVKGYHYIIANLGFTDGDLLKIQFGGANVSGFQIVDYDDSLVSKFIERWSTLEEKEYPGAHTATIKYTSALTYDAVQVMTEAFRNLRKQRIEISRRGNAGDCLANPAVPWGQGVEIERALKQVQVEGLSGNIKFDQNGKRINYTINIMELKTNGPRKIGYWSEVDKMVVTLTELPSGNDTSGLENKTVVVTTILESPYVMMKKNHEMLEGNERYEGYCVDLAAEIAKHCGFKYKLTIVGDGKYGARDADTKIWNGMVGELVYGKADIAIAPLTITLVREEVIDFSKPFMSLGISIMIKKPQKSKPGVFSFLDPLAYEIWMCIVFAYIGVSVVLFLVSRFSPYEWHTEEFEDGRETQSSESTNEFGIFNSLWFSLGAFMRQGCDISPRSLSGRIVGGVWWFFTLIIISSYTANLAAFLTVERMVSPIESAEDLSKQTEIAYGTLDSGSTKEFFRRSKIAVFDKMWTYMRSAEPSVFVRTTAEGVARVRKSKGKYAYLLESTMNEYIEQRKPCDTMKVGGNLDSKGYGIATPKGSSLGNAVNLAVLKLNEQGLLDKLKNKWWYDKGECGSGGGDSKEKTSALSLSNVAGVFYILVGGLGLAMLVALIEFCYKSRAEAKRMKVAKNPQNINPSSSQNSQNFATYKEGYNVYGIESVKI

Target: T1, CI-AMPARs (Rattus norvegicus, UniProt P19491, Q607R)
T1 construct: activity against native calcium-permeable AMPA receptors (CP-AMPARs) and calcium-impermeable AMPA receptors (CI-AMPARs); endogenous in cells; host or cells: acutely isolated pyramidal neurons from the CA1 area of Wistar rat hippocampal slices
Test: Whole-cell patch-clamp of kainate-induced currents in isolated hippocampal CA1 pyramidal neurons
Type: cell-based, Wistar rat
Conditions: for % block: DNQX, 200 nM, representative recording, Figure 3D
Method: All experimental procedures were approved by the Animal Care and Use Committee of the I.M. Sechenov Institute of Evolutionary Physiology and Biochemistry of the Russian Academy of Sciences. Wistar rats (13–19 days old) were anesthetized with sevoflurane and then decapitated. Maximum effort was made to minimize the number of animals used. Brains were removed quickly and cooled to 2–4°C in an ice bath. […] The antagonism of CI-AMPARs was studied on pyramidal neurons from the CA1 area of the hippocampus.
Series resistance of about 20 MΩ was compensated by 70–80% and monitored during experiments. Currents were recorded using an EPC-8 amplifier (HEKA Electronics, Lambrecht, Germany), filtered at 5 kHz, sampled, and stored on a personal computer. Drugs were applied using the RSC-200 perfusion system (BioLogic Science Instruments, Claix, France) under computer control. The solution exchange time in the whole-cell mode was 50–60 ms. […] The pipette solution contained (in mM) CsF 100, CsCl 40, NaCl 5, CaCl2 0.5, EGTA 5, and HEPES 10 (pH was adjusted to 7.2 with CsOH). Experiments were performed at room temperature (22–24°C). […] Lamotrigine, topiramate, levetiracetam, felbamate, carbamazepine, tiagabin, vigabatrin, zonisamide, and gabapentin were purchased from Tocris Bioscience (Bristol, United Kingdom). Perampanel was from MedChemExpress (Stockholm, Sweden). Kinetics of transient processes of more than 20-ms duration was approximated by exponential functions. Experiments were performed at −80 mV holding voltage. All experimental data are presented as mean ± SD estimated from at least four experiments. Significance of the effects was tested with paired t test. Differences were considered significant at p < 0.05. 3D structures of compounds were calculated by the ZMM software (zmmsoft.ca).

O=c1[nH]c2cc([N+](=O)[O-])c([N+](=O)[O-])cc2[nH]c1=O [DNQX]
effect on maximal response to kainate (0.2 µM DNQX): did not change it | effect on the slow phase of recovery from 50 µM phenytoin (10 µM DNQX): remains unchanged | Activity drop in the presence of cyclothiazide (100 µM cyclothiazide, 50 µM kainate): less active in the presence of cyclothiazide and Yes | Activity drop at high (500 µM) kainate concentration (50 vs 500 µM kainate): more active in the case of lower kainate concentration and Yes | decrease in the % of inhibition with the increase in agonist concentration (50 vs 500 µM kainate): 30–40% | % block (Ka 50 μM): 52% | % block (Ka 500 μM): 14% | More active against CI-AMPARs (comparison of CI-AMPARs and CP-AMPARs): slightly more active against hippocampal CI-AMPARs and Yes
